Measurements published in ChEMBL document CHEMBL1255447, “Efflux pumps, OprD porin, AmpC beta-lactamase, and multiresistance in Pseudomonas aeruginosa isolates from cystic fibrosis patients” (2010).

How the values were obtained:
Pseudomonas aeruginosa [1] = settings: 2779-con
Pseudomonas aeruginosa [2] = settings: isolate 13120
Pseudomonas aeruginosa [3] = settings: M1251

Measured: MIC

GENTAMICIN
0.5 µg/mL: all assays above
